Molecular target: DvH-FDH2 (Nitratidesulfovibrio vulgaris (Desulfovibrio vulgaris Hildenborough), UniProt Q728X0)
Experiment: Effect of sodium azide / sodium nitrate on PES/DCPIP reduction by DvH-FDH2
Format: biochemical
Details: anaerobic and aerobic, 4-parameter sigmoidal fit

[N-]=[N+]=[N-]
IC50: 800 µM
